Source: patent US7388010B2, “Quinoxalinone derivatives” (Banyu Pharmaceutical Co., Ltd., priority 2002, dated 2008)

Protein sequences, listed by entry. Tags and fused reporters are not part of them.
UniProt P11802, whole entry: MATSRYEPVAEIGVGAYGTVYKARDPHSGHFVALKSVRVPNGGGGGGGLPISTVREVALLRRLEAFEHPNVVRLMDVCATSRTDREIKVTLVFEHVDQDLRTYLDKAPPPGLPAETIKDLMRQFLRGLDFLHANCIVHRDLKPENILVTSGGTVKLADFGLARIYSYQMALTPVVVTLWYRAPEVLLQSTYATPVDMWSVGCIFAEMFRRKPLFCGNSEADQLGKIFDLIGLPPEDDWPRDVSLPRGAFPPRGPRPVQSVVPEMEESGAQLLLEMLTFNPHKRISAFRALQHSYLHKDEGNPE
UniProt P30279, whole entry partner: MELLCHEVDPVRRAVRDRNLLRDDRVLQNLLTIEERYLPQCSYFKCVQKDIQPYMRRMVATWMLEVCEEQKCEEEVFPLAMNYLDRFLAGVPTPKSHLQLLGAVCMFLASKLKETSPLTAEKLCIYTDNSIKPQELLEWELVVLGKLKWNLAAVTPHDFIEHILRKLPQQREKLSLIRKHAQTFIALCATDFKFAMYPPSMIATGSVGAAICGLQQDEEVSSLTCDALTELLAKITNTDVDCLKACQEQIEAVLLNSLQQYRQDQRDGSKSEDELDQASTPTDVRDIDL

Tests used:
cyclin D2-Cdk4 = cyclin D2-Cdk4 (Homo sapiens, UniProt P11802); experiment: Cyclin D2-Cdk4 inhibitory activity (33P-ATP phosphorylation of RB peptide substrate); format: biochemical; details: read-out: IC50 against cyclin D2-Cdk4 activity; 50 μM ATP, 100 μM substrate peptide, 30° C., 45 minutes; tested form: HCl
From the text: cDNAs of Cdk4 and its activating factor cyclin D2 were each introduced into a baculovirus expression vector to obtain a recombinant baculovirus; it was then co-infected to an insect cell Sf9 to highly express active cyclin D2/Cdk4 complexes. The cells were recovered, solubilized and the enzymes were purified by HPLC column chromatography (The Embo Journal, vol. 15, 7060-7069 (1996)).
In the determination of cyclin D2-Cdk4 activity, a synthetic peptide Arg-Pro-Pro-Thr-Leu-Ser-Pro-Ile-Pro-His-Ile-Pro-Arg corresponding to the amino acid number 775-787 of RB protein was used as a substrate [The EMBO Journal, vol. 15, 7060-7069 (1996)].
The reaction was carried out according to a method partially modifying Kitagawa et al. (Oncogene, vol. 7, 1067-1074 (1992)). […] The peptide substrate was adsorbed on a P81 paper filter in a 96-well plate, and the plate was washed several times with 75 mM phosphate buffer, and then its radioactivity was measured by a liquid scintillation counter. […]
The compounds in the following Working Examples were chosen as typical compounds of the present invention, and IC50 values against cyclin D2-Cdk4 activity of those compounds were determined.

HCT116 cells = experiment: Inhibitory activity of BrdU uptake in HCT116 cells (Cell Proliferation ELISA, chemiluminescence); details: read-out: IC50 on BrdU uptake; HCT116 cells derived from human colon cancer, cultured with compound for 12 hours, BrdU pulse 1 hour; tested form: HCl
Description: Growing cells perform DNA duplication in the S phase of the cell cycle, and divide into daughter cells in the M phase via the G2 phase. As an index for the cell growth, there is a method to determine the amount of BrdU taken into newly synthesized DNAs in the DNA duplicating cells ((J. Immunol Methods, vol. 82, p. 169-179 (1985); J. Immunolog. Methods, vol. 106, p. 95-100 (1988); Cytometry, vol. 14, p. 640-648 (1993)). Inhibitory activities of BrdU uptake was determined in order to investigate the effect of the compounds of the present invention against cancer cells.
HCT116 cells derived from human colon cancer were cultured in Dulbecco's modified Eagle's medium containing 10% fetal bovine serum at 37° C. in the presence of 5% carbon dioxide under an atmosphere of saturated steam. […]
Quantitative determination of BrdU uptake was performed using the Cell Proliferation ELISA, BrdU (chemiluminescence)(Roche Diagnostics). […] The cells were incubated at room temperature for 10 minutes and chemical luminescence was determined with a luminometer.
As typical compounds of the present invention, the compounds [11], [12], [39], [51], [71], [83], [85], [134] and [141] were chosen, and IC50 values of these compounds on BrdU uptake were determined.

For `Cc1cc2c3nc(c(=O)[nH]c3c1)-c1cccc3c(=O)n([nH]c13)CCN1CC[C@@H](C1)O2`, the IC50 (cyclin D2-Cdk4) was 26 nM and the IC50 (HCT116 cells) was 20 nM.
